Measurements taken from ChEMBL document CHEMBL1130318, “Inhibition of stromelysin-1 (MMP-3) by P1'-biphenylylethyl carboxyalkyl dipeptides” (J Med Chem, 1997).

The chains behind the UniProt entries cited, without tags or fusion partners. Where a name states a change or a piece, a line headed by the entry shows the natural chain unless it says otherwise.
UniProt P08254: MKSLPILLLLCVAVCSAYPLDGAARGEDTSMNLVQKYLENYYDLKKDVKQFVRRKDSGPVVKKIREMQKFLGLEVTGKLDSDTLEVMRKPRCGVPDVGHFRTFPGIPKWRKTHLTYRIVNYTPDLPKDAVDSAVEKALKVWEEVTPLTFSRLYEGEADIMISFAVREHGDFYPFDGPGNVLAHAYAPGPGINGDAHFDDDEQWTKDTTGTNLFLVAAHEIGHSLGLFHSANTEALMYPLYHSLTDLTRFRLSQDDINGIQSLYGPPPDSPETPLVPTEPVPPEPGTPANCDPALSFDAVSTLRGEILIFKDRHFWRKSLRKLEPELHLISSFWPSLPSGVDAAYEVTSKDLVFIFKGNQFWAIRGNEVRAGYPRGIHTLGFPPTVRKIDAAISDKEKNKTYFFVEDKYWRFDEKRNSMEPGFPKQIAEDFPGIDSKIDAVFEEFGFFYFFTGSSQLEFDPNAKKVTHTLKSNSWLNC

Molecular target: Stromelysin-1 (Homo sapiens, UniProt P08254)

Ki: 2 nM
SMILES: CC(C)C[C@H](NC(=O)[C@H](CCc1ccc(-c2ccc(F)cc2)cc1)C[C@H](CCCCN1Cc2ccccc2C1=O)C(=O)O)C(=O)Nc1ccccc1 [L-764004]
